Each structure is given as a SMILES string. This is a selection; strong and weak results do not stand in their true shares. Calls of active or inactive are those of the source.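 How the source made its calls: active means viability at or below 30% in both replicate assays; inconclusive means viability at or below 30% in just one of the two assays; inactive means the rest.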

A short description of the assay: HUVEC growth inhibition – cell-based, human, primary screen (AID 575).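 Further: 100% = median of untreated cell wells with 0.1% DMSO on each plate.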 The conditions noted are these: HUVEC proliferation, CellTiter-Glo luminescence, 72 h; at 10 µM; hits give low values. In a few lines:
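material = primary HUVEC, no more than 12 passages | input = 1250 cells per well | controls = vehicle and MePR control wells | measured by = CTG luminescence | times = 72 h compound incubation | format = collagen-coated 384-well format | read-out = % viability vs DMSO wells | doses = single 10 µM dose, 0.1% DMSO, from 5x medium stock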
Turning to `Fc1ccccc1NC1CCN(Cc2ccccc2)CC1`, the viability is inactive: 103%.

The term viability denotes a read-out of living cells in per cent, often relative to untreated cells.
